Source: US20060160798A1, “Viral polymerase inhibitors” (Boehringer Ingelheim (Canada) Ltd., priority 2001, published 2006)

Target: hepatitis C virus RNA dependant polymerase (NS5B) (Hepatitis C virus genotype 1b, UniProt P26663)
Test: biochemical
Conditions: IC50, Table 6

Structure (SMILES) | IC50 [nM]
CC(=O)Nc1nc(-c2c(C3CCCC3)c3ccc(C(=O)NC(C)(C)C(=O)Nc4ccc(/C=C/C(=O)O)cc4)cc3n2C)cs1 [Entry 6008] | < 500
CNc1nc(-c2c(C3CCCC3)c3ccc(C(=O)NC(C)(C)C(=O)Nc4ccc(/C=C/C(=O)O)cc4)cc3n2C)cs1 [Entry 6009] | < 500
CCNc1nc(-c2c(C3CCCC3)c3ccc(C(=O)NC(C)(C)C(=O)Nc4ccc(/C=C/C(=O)O)cc4)cc3n2C)cs1 [Entry 6010] | < 500
Cn1c(-c2csc(-c3ccncc3)n2)c(C2CCCC2)c2ccc(C(=O)NC(C)(C)C(=O)Nc3ccc(/C=C/C(=O)O)cc3)cc21 [Entry 6011] | < 500
Cn1c(-c2csc(-c3ccccc3)n2)c(C2CCCC2)c2ccc(C(=O)NC(C)(C)C(=O)Nc3ccc(/C=C/C(=O)O)cc3)cc21 [Entry 6012] | 500 to 1000
CCCNc1nc(-c2c(C3CCCC3)c3ccc(C(=O)NC(C)(C)C(=O)Nc4ccc(/C=C/C(=O)O)cc4)cc3n2C)cs1 [Entry 6014] | < 500
Cn1c(-c2csc(Nc3ccccn3)n2)c(C2CCCC2)c2ccc(C(=O)NC(C)(C)C(=O)Nc3ccc(/C=C/C(=O)O)cc3)cc21 [Entry 6015] | 500 to 1000
Cn1c(-c2csc(N3CCCCC3)n2)c(C2CCCC2)c2ccc(C(=O)NC(C)(C)C(=O)Nc3ccc(/C=C/C(=O)O)cc3)cc21 [Entry 6016] | < 500
CC(C)Nc1nc(-c2c(C3CCCC3)c3ccc(C(=O)NC(C)(C)C(=O)Nc4ccc(/C=C/C(=O)O)cc4)cc3n2C)cs1 [Entry 6017] | < 500
Cc1nc(-c2nc(-c3c(C4CCCC4)c4ccc(C(=O)NC(C)(C)C(=O)Nc5ccc(/C=C/C(=O)O)cc5)cc4n3C)cs2)cs1 [Entry 6018] | < 500
Cn1c(-c2csc(-c3cccs3)n2)c(C2CCCC2)c2ccc(C(=O)NC(C)(C)C(=O)Nc3ccc(/C=C/C(=O)O)cc3)cc21 [Entry 6019] | 500 to 1000
COCCNc1nc(-c2c(C3CCCC3)c3ccc(C(=O)NC(C)(C)C(=O)Nc4ccc(/C=C/C(=O)O)cc4)cc3n2C)cs1 [Entry 6020] | < 500
Cn1c(-c2csc(NCC3CCCO3)n2)c(C2CCCC2)c2ccc(C(=O)NC(C)(C)C(=O)Nc3ccc(/C=C/C(=O)O)cc3)cc21 (centres unmarked) [Entry 6021] | < 500
Cn1c(-c2csc(Nc3ccncc3)n2)c(C2CCCC2)c2ccc(C(=O)NC(C)(C)C(=O)Nc3ccc(/C=C/C(=O)O)cc3)cc21 [Entry 6022] | 500 to 1000
Cn1c(-c2csc(NCCN3CCCCC3)n2)c(C2CCCC2)c2ccc(C(=O)NC(C)(C)C(=O)Nc3ccc(/C=C/C(=O)O)cc3)cc21 [Entry 6023] | < 500
Cn1c(-c2csc(CS(C)(=O)=O)n2)c(C2CCCC2)c2ccc(C(=O)NC(C)(C)C(=O)Nc3ccc(/C=C/C(=O)O)cc3)cc21 [Entry 6024] | < 500
Cn1c(-c2csc(NCCN3CCOCC3)n2)c(C2CCCC2)c2ccc(C(=O)NC(C)(C)C(=O)Nc3ccc(/C=C/C(=O)O)cc3)cc21 [Entry 6025] | < 500
Cn1c(-c2csc(CO)n2)c(C2CCCC2)c2ccc(C(=O)NC(C)(C)C(=O)Nc3ccc(/C=C/C(=O)O)cc3)cc21 [Entry 6026] | < 500
CC(C)C(=O)Nc1nc(-c2c(C3CCCC3)c3ccc(C(=O)NC(C)(C)C(=O)Nc4ccc(/C=C/C(=O)O)cc4)cc3n2C)cs1 [Entry 6027] | < 500
CC(C)OC(=O)Nc1nc(-c2c(C3CCCC3)c3ccc(C(=O)NC(C)(C)C(=O)Nc4ccc(/C=C/C(=O)O)cc4)cc3n2C)cs1 [Entry 6028] | < 500
Cn1c(-c2csc(NC(=O)C(C)(C)C)n2)c(C2CCCC2)c2ccc(C(=O)NC(C)(C)C(=O)Nc3ccc(/C=C/C(=O)O)cc3)cc21 [Entry 6029] | < 500
Cn1c(-c2csc(NC(=O)OC3CCCC3)n2)c(C2CCCC2)c2ccc(C(=O)NC(C)(C)C(=O)Nc3ccc(/C=C/C(=O)O)cc3)cc21 [Entry 6030] | 500 to 1000

Structure (SMILES) | IC50 [nM]
CCC(CC)Nc1nc(-c2c(C3CCCC3)c3ccc(C(=O)NC(C)(C)C(=O)Nc4ccc(/C=C/C(=O)O)cc4)cc3n2C)cs1 [Entry 6031] | 500 to 1000
CN(C)Nc1nc(-c2c(C3CCCC3)c3ccc(C(=O)NC(C)(C)C(=O)Nc4ccc(/C=C/C(=O)O)cc4)cc3n2C)cs1 [Entry 6032] | < 500
Cn1c(-c2csc(NC3CCCC3)n2)c(C2CCCC2)c2ccc(C(=O)NC(C)(C)C(=O)Nc3ccc(/C=C/C(=O)O)cc3)cc21 [Entry 6033] | 500 to 1000
CC(C)N(C)c1nc(-c2c(C3CCCC3)c3ccc(C(=O)NC(C)(C)C(=O)Nc4ccc(/C=C/C(=O)O)cc4)cc3n2C)cs1 [Entry 6034] | < 500
CN(C)CCNc1nc(-c2c(C3CCCC3)c3ccc(C(=O)NC(C)(C)C(=O)Nc4ccc(/C=C/C(=O)O)cc4)cc3n2C)cs1 [Entry 6035] | < 500
Cn1c(-c2ccccn2)c(C2CCCC2)c2ccc(C(=O)NC3(C(=O)Nc4ccc(/C=C/C(=O)O)cc4)CC3)cc21 [Entry 6036] | < 500
Cn1c(-c2cccc(N)n2)c(C2CCCC2)c2ccc(C(=O)NC3(C(=O)Nc4ccc(/C=C/C(=O)O)cc4)CC3)cc21 [Entry 6037] | < 500
Cn1c(-c2ccsc2)c(C2CCCC2)c2ccc(C(=O)NC3(C(=O)Nc4ccc(/C=C/C(=O)O)cc4)CCC3)cc21 [Entry 6040] | < 500
Cn1c(-c2ccc(C(F)(F)F)cn2)c(C2CCCC2)c2ccc(C(=O)NC3(C(=O)Nc4ccc(/C=C/C(=O)O)cc4)CCC3)cc21 [Entry 6041] | < 500
Cn1c(-c2ccc(C(F)(F)F)cn2)c(C2CCCC2)c2ccc(C(=O)NC3(C(=O)Nc4ccc(/C=C/C(=O)O)cc4)CCCC3)cc21 [Entry 6042] | < 500
COc1cccc(-c2c(C3CCCC3)c3ccc(C(=O)NC4(C(=O)Nc5ccc(/C=C/C(=O)O)cc5)CCC4)cc3n2C)n1 [Entry 6043] | < 500
COc1cccc(-c2c(C3CCCC3)c3ccc(C(=O)NC4(C(=O)Nc5ccc(/C=C/C(=O)O)cc5)CCCC4)cc3n2C)n1 [Entry 6044] | < 500
Cn1c(-c2ccc(Cl)cc2)c(C2CCCC2)c2ccc(C(=O)NC3(C(=O)Nc4ccc(/C=C/C(=O)O)cc4)CCC3)cc21 [Entry 6045] | 500 to 1000
C=Cc1c(C2CCCC2)c2ccc(C(=O)NC(C)(C)C(=O)Nc3ccc(/C=C/C(=O)O)cc3)cc2n1C [Entry 6046] | < 500
CN1CCC(NC(=O)c2ccc3c(C4CCCC4)c(-c4ccc(Cl)cn4)n(C)c3c2)(C(=O)Nc2ccc(/C=C/C(=O)O)cc2)CC1 [Entry 6050] | < 500
Cn1c(-c2nccs2)c(C2CCCC2)c2ccc(C(=O)NC3(C(=O)Nc4ccc(/C=C/C(=O)O)cc4)CCCC3)cc21 [Entry 6051] | < 500
Cn1c(-c2cccc(N)c2)c(C2CCCC2)c2ccc(C(=O)NC3(C(=O)Nc4ccc(/C=C/C(=O)O)cc4)CCCC3)cc21 [Entry 6052] | < 500
Cn1c(-c2ccc(N)cc2)c(C2CCCC2)c2ccc(C(=O)NC3(C(=O)Nc4ccc(/C=C/C(=O)O)cc4)CCCC3)cc21 [Entry 6053] | < 500
CN1CCC(NC(=O)c2ccc3c(C4CCCC4)c(-c4ccc(N)cc4)n(C)c3c2)(C(=O)Nc2ccc(/C=C/C(=O)O)cc2)CC1 [Entry 6054] | < 500
Cn1c(-c2ccsc2)c(C2CCCC2)c2ccc(C(=O)NC3(C(=O)Nc4ccc(/C=C/C(=O)O)cc4)CCCC3)cc21 [Entry 6055] | < 500
CN1CCC(NC(=O)c2ccc3c(C4CCCC4)c(-c4ccsc4)n(C)c3c2)(C(=O)Nc2ccc(/C=C/C(=O)O)cc2)CC1 [Entry 6056] | < 500
Cc1cccc(-c2c(C3CCCC3)c3ccc(C(=O)NC4(C(=O)Nc5ccc(/C=C/C(=O)O)cc5)CCCC4)cc3n2C)n1 [Entry 6057] | < 500
